# Measurements: PubChem BioAssay AID2805 (Sanford-Burnham Center for Chemical Genomics, 2010)
# The list shows a part of the results, in another mix than the full data. Active and inactive are the calls of the source.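 Rule for the calls: active = activation factor of at least 2 at 20 µM; inactive = the rest.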
# Tested on: intestinal alkaline phosphatase [Mus musculus]
# Experiment: mouse intestinal phosphatase enzyme activation – biochemical, luminescence, uHTS, primary screen (AID 2805)
# Conditions: muIAP, CDP-Star luminescence, 30 min; at 10 µM; stronger effect = higher value; 1 = vehicle-only enzyme signal, 0 = enzyme-free wells
# Summary of the method: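 System: Mouse IAP enzyme | Also added: CDP-Star substrate | Dosing: Compounds dispensed in DMSO | Schedule: 30 min enzyme-substrate-compound incubation at room temperature | Technique: Chemiluminescence readout | Control set: DMSO-only wells and no-enzyme negative control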
row,SMILES,activation factor
1,Cc1cc(SC(NC(=O)c2ccccc2)C(Cl)(Cl)Cl)nc(C(C)C)n1 (centres undefined),inactive: 0.886
2,CCCCOc1ccc(C(=O)NCC2(N3CCCCC3)CCCCC2)cc1OC,inactive: 1.25
3,CCOC(=O)Nc1ccc([As](=O)(O)O)c(O)c1,inactive: 0.803
4,O=P(Nc1ccccn1)(c1cccc2ccccc12)c1cccc2ccccc12,inactive: 0.978
5,Cc1cc(SC(NC=O)C(Cl)(Cl)Cl)ncn1 (centres undefined),inactive: 1.07
6,CCOC(=O)Nc1cccc([As](=O)(O)O)c1,inactive: 0.898
7,O=C(Nc1ccncc1[N+](=O)[O-])c1ccc([N+](=O)[O-])cc1[N+](=O)[O-],inactive: 0.947
8,O=C(COc1ccccc1)OC1CN2CCC1CC2 (centres undefined),inactive: 1.01
9,COP1(=S)c2c(C)nn(CCC#N)c2N=C(c2ccc(F)cc2)N1C (centres undefined),inactive: 0.948
10,CCC(C)N(CC(C)C)C(=S)SC(NC(C)=O)C(Cl)(Cl)Cl (centres undefined),inactive: 0.949
11,CCOC(=O)c1ccc(NC(=O)C(C)(CCl)SC)cc1 (centres undefined),inactive: 1.1
12,O=C(OC1CN2CCC1CC2)c1cccc([N+](=O)[O-])c1 (centres undefined),inactive: 1.03
13,COc1cc(I)ccc1[As](=O)(O)O,inactive: 0.96
14,COc1ccc2nc(NP(=O)(c3ccccc3)c3ccccc3)sc2c1,inactive: 0.925
15,Cc1cc(=O)[nH]c(N[N+](=O)[O-])n1,inactive: 1.08
16,O=C(OC1CN2CCC1CC2)C12CC3CC(CC(C3)C1)C2 (centres undefined),inactive: 0.958
17,Cc1c2c(nc3ccccc13)SC(C(Cl)Cl)C2 (centres undefined),inactive: 0.96
18,COc1ccc(N/C(=N/P(=O)(N2CCOCC2)N2CCOCC2)N2CCOCC2)cc1,inactive: 0.911
19,Cc1ccc2nc3c(c(C)c2c1)CC(C(Cl)Cl)S3 (centres undefined),inactive: 0.948
20,Cc1ccc(OP(=O)(Nc2ccc([N+](=O)[O-])cn2)Oc2ccc(C)cc2)cc1,inactive: 1.05
21,COc1cc(C(=O)NCC2(N3CCOCC3)CCCCC2)ccc1OCC(C)C,inactive: 1.05
22,O=[As](O)(c1ccc(O)cc1)c1ccccc1O,inactive: 1.02
23,C[As](=O)(O)c1cccc(C(=O)O)c1,inactive: 0.978
24,O=[N+]([O-])c1cc([N+](=O)[O-])c(-c2ccn[nH]2)s1,inactive: 0.566
25,O=C(OC1CN2CCC1CC2)c1cccc2[nH]cnc12 (centres undefined),inactive: 1
26,CCN(CC)C(=S)SC(NC=O)C(Cl)(Cl)Cl (centres undefined),inactive: 1.06

row,SMILES,activation factor
1,CC(C)NC(=O)NP(=O)(Oc1ccccc1)Oc1ccccc1,inactive: 1
2,CC(C)c1ccc(OP(=O)(Nc2ccccn2)Oc2ccccc2F)cc1 (centres undefined),inactive: 0.985
3,ClCCSc1nnc(-c2cccnc2)o1,inactive: 0.991
4,Nc1ccccc1[As](=O)(O)c1ccccc1,inactive: 1.04
5,O=C(O)COc1ccc([As](=O)(O)O)cc1[N+](=O)[O-],inactive: 1.06
6,CS(=O)(=O)c1cc([N+](=O)[O-])c2no[n+]([O-])c2c1,inactive: 0.93
7,O=P(Nc1nccs1)(c1ccccc1)c1nc2ccccc2s1 (centres undefined),inactive: 1.05
8,O=P(Nc1nccs1)(Oc1ccccc1)Oc1ccccc1,inactive: 1.02
9,CCOP1(=S)c2c(C)nn(CCC#N)c2N=C(c2ccccc2F)N1C (centres undefined),inactive: 0.998
10,CN(C(=O)Cc1ccc(Cl)c(Cl)c1)[C@H]1CC[C@@]2(CCCO2)C[C@@H]1N1CCCC1,inactive: 1.03
11,CN(C)C(=O)c1cc([N+](=O)[O-])cc2c1-c1c(cc([N+](=O)[O-])cc1[N+](=O)[O-])C2=O,inactive: 1.05
12,O=[N+]([O-])c1ccc2c(c1)nnn2O,inactive: 1.04
13,CN(C(=O)Cc1ccccc1)[C@@H]1CC[C@]2(CCCO2)C[C@H]1N1CCCC1,inactive: 0.96
14,CCOP1(=S)c2c(C)nn(CCC#N)c2N=C(c2ccc(F)cc2)N1C (centres undefined),inactive: 0.886
15,N#CCCN(C(=O)COC(=O)C(O)(c1ccccc1)c1ccccc1)c1ccc(F)cc1,inactive: 0.929
16,NC(=O)Nc1ccc([As](=O)(O)O)cc1,inactive: 1.14
17,O=[As](O)(c1cccc(O)c1)c1cccc(O)c1,inactive: 0.942
18,Cc1cccc(OCC(=O)OC2CN3CCC2CC3)c1 (centres undefined),inactive: 0.983
19,CS(=O)(=O)c1ccc(Cl)c(NC(=O)COC(=O)C(O)(c2ccccc2)c2ccccc2)c1,inactive: 0.986
20,COc1cc(C(=O)NCC2(N3CCOCC3)CCCCC2)cc(Cl)c1OC(C)C,inactive: 1.07
21,O=[As](O)(O)c1cccnc1,inactive: 0.967
22,O=C(OC1CN2CCC1CC2)c1ccc(Cl)cc1 (centres undefined),inactive: 1.05
23,CCOP(=O)(Nc1cccc2ccccc12)OCC,inactive: 0.962
24,COc1cc(C2NCCC3(OCCO3)C2(C)C)cc(OC)c1OC (centres undefined),inactive: 0.984
25,CCCOP(=S)(Nc1nc(N)cc(=O)[nH]1)OCCC,inactive: 1
26,Cc1ccc(NCCc2c([N+](=O)[O-])cc([N+](=O)[O-])cc2[N+](=O)[O-])cc1,inactive: 0.847

row,SMILES,activation factor
1,CC(C)(C)C(=O)NC(Sc1ncccn1)C(Cl)(Cl)Cl (centres undefined),inactive: 1
2,Clc1n[nH]nc1-c1nn[nH][15n]1,inactive: 0.995
3,CN(CCCl)Cc1cc(Cl)c(NC2=NCCN2)c(Cl)c1,inactive: 0.977
4,CCOP(=O)(Nc1ccc(C)cn1)OCC,inactive: 1.13
5,CCOP(=O)(NC(=NC(C)c1ccccc1)NC(C)c1ccccc1)OCC (centres undefined),inactive: 1.04
6,O=P1(Nc2ccccn2)COc2ccccc2OC1,inactive: 1.04
7,CCC1=CC2Cc3nc4ccc(Cl)cc4c(N)c3C(C1)C2 (centres undefined),inactive: 1.05
8,CC1(CBr)Cn2c(nc3ccccc3c2=O)S1 (centres undefined),inactive: 1.06
9,O=[As](O)(c1ccccc1Br)c1ccccc1Br,inactive: 1.03
10,CC(C)/C=N\N=C(\N)N[N+](=O)[O-],inactive: 1.09
11,CN(C(=O)Cc1ccc(Cl)c(Cl)c1)[C@@H]1CCCC[C@H]1N1CCCC1,inactive: 1.01
12,COc1ccccc1CNC(=O)COC(=O)C(O)(c1ccccc1)c1ccccc1,inactive: 0.965
13,O=C(/C=C/c1ccccc1)OC1CN2CCC1CC2 (centres undefined),inactive: 1.07
14,CN(C)C1(CNC(=O)c2ccc(S(C)(=O)=O)cc2)CCCCC1,inactive: 1.05
15,CC1CCC(C(C)C)C(OP(=O)(Nc2ccccn2)c2ccccc2)C1 (centres undefined),inactive: 0.898
16,Cc1ccc(C(=O)OC2CN3CCC2CC3)cc1 (centres undefined),inactive: 0.975
17,Cc1nn(-c2ccccc2)c2c1P(=O)(N1CCOCC1)N(C)C(c1ccccc1)=N2 (centres undefined),inactive: 0.965
18,O=P1(Nc2ccc(Br)cn2)COc2ccccc2OC1,inactive: 0.958
19,NS(=O)(=O)c1cccc(NC(=O)COC(=O)C(O)(c2ccccc2)c2ccccc2)c1,inactive: 0.801
20,O=[As](O)(c1cccs1)c1cccs1,inactive: 0.947
21,Cc1ccc(OCC(=O)OC2CN3CCC2CC3)cc1 (centres undefined),inactive: 0.929
22,Nc1cccc([As](=O)(O)c2ccccc2)c1,inactive: 1.03
23,O=P1(Nc2ncccn2)COc2ccccc2OC1,inactive: 0.963
24,C[C@H]1OP(=O)(Oc2ccccc2)[C@H](O)[C@H](O)[C@H]1N=[N+]=[N-] (some centres undefined),inactive: 1.12
25,O=P(Nc1nc2ccccc2s1)(c1ccccc1)c1ccccc1,inactive: 0.982
26,O=P(Nc1ccccn1)(c1ccc(Br)cc1)c1ccc(Br)cc1,inactive: 1.06

row,SMILES,activation factor
1,CN(C)C1(CNC(=O)c2ccc(Cl)c(S(N)(=O)=O)c2)CCCCC1,inactive: 1.05
2,Nc1ccc([As](=O)(O)c2ccc([N+](=O)[O-])cc2)cc1,inactive: 0.912
3,C(Cc1nn[nH]n1)Cc1nn[nH]n1,inactive: 0.888
4,O=C(OC1CN2CCC1CC2)c1cccc(Cl)c1 (centres undefined),inactive: 1.04
5,O=[N+]([O-])c1ncn(CCn2cnc([N+](=O)[O-])n2)n1,inactive: 0.997
6,O=[As](O)(c1ccccc1)c1ccc(O)cc1,inactive: 1.09
7,c1nnnn1CCn1cnnn1,inactive: 1.08
8,CC(C)C(=O)NC(Sc1ccccc1)C(Cl)(Cl)Cl (centres undefined),inactive: 1.07
9,O=P(Nc1nccs1)(c1ccccc1)c1ccccc1,inactive: 0.952
10,CC(C)(C)C(=O)NC(Sc1ccccc1)C(Cl)(Cl)Cl (centres undefined),inactive: 0.961
11,CCOc1ccc(C2=NCC(CBr)S2)cc1 (centres undefined),inactive: 0.891
12,O=P1(Nc2nc3ccc(Cl)cc3s2)COc2ccccc2O1 (centres undefined),inactive: 1.01
13,CC(=O)Nc1ccc(Oc2c([N+](=O)[O-])cc([N+](=O)[O-])cc2[N+](=O)[O-])cc1,inactive: 1.1
14,CC(=O)Nc1ccc([As](=O)(O)O)c(O)c1,inactive: 0.912
15,CC(=O)c1ccc(N2CC2c2ccncc2)cc1 (centres undefined),inactive: 0.958
16,C[C@@H]1C=CCP(=O)(Oc2ccccc2)O1 (some centres undefined),inactive: 0.943
17,C[C@H]1OP(=O)(Oc2ccccc2)C[C@@H]2O[C@@H]21 (some centres undefined),inactive: 1.04
18,Cc1ccccc1CN(C)C(=O)COC(=O)C(O)(c1ccccc1)c1ccccc1,inactive: 0.939
19,CCNC(=S)/N=C(\N)N[N+](=O)[O-],inactive: 0.897
20,O=C(NC1CCS(=O)(=O)C1)NP(=S)(Oc1ccccc1)Oc1ccccc1 (centres undefined),inactive: 1.03
21,CCOC(=O)NC(Sc1ccccc1)C(Cl)(Cl)Cl (centres undefined),inactive: 0.921
22,Cc1ccc(NP(=O)(Oc2cccc(C)c2)Oc2cccc(C)c2)nc1,inactive: 1.13
23,c1ccc(-c2nn[nH]n2)c(-c2nn[nH]n2)c1,inactive: 0.947
24,CN(C)C(=O)Oc1noc2ccccc12,inactive: 0.982
25,Cc1ccccc1OP(=O)(Nc1ccccn1)Oc1ccccc1C,inactive: 1
26,CC(NC(=O)COC(=O)C(O)(c1ccccc1)c1ccccc1)c1ccccc1 (centres undefined),inactive: 1.08
